This passage reports Kd results from doi:10.1101/2025.09.24.678334.

By Kd is commonly meant a measure of binding affinity in units of concentration.

The target in this assay is monomeric actin (ATP•G-actin) from chicken skeletal muscle (chicken) (UniProt P68139). Put plainly: SPR; actin (20 nM, about 1000 RU) coupled by EDC/NHS to a CM5 chip; concentration series of analyte; Biacore 8k; 1X HBS-EP+ pH 7.6; Hill equilibrium fit and two-state kinetic fit.

Regarding “RanGTP (RanQ69L loaded with GTP) (from UniProt P62826 1-216) (natural protein)”, the Kd is 300 nM.
